From the Kinase Knowledgebase extract (Sharma et al. 2016) come the findings set out here.

What is called IC50 is the midpoint of a concentration-inhibition curve. A lower IC50 goes with greater potency.

Experiment [1] has as its target CDK2 (human) (UniProt P24941). The experiment is described as follows: Enzyme Assay.
For experiment [2], the target named is CDK2 (human) (UniProt P24941). In words: Enzyme Assay. This is another data set of the same source.

Each structure is given as a SMILES string.

Turning to `CC[C@@H](Nc1nc(NCc2cccnc2)c2ncn(C(C)C)c2n1)C(C)(C)O`, the IC50 at CDK2 (human) [1] was found to be 370 nM; at CDK2 (human) [2] it was 130 nM.
